In PubChem BioAssay AID602363 (Broad Institute, 2012):
Only a part is listed here, and it is no random draw. The source made the active and inactive calls.

Assay: UUG initiation codon usage in yeast – whole organism, S. cerevisiae, single point, plate reader, primary screen (AID 602363);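 further: firefly luciferase made from a UUG start codon reports start codon fidelity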
Details: S. cerevisiae UUG-firefly luciferase reporter, luminescence/redox ratio; at 18.7 µM; stronger effect = higher value

Question: With `CC1=C2N=C(C=C3N=C(C(C)=C4[N-][C@@](C)([C@@H]5N=C1[C@](C)(CCC(=O)NC[C@@H](C)OP(=O)([O-])O[C@H]1[C@@H](O)[C@@H](n6cnc7cc(C)c(C)cc76)O[C@@H]1CO)[C@H]5CC(N)=O)[C@@](C)(CC(N)=O)[C@@H]4CCC(N)=O)[C@@](C)(CC(N)=O)[C@@H]3CCC(N)=O)C(C)(C)[C@@H]2CCC(N)=O.[C-]#N.[Co+3]` as the molecule, how does the activity score read?
Answer: inactive: -14.7%
